Experimental data published in patent publication US12448375B2, “Kinase inhibitors for the treatment of neurodegenerative diseases” (Ohio State Innovation Foundation, priority 2019, dated 2025).

Protein sequences, listed by entry. Tags and fused reporters are not part of them. Lines headed by an entry give the natural chain unless they say otherwise; changes in a name come on top.
UniProt P53779: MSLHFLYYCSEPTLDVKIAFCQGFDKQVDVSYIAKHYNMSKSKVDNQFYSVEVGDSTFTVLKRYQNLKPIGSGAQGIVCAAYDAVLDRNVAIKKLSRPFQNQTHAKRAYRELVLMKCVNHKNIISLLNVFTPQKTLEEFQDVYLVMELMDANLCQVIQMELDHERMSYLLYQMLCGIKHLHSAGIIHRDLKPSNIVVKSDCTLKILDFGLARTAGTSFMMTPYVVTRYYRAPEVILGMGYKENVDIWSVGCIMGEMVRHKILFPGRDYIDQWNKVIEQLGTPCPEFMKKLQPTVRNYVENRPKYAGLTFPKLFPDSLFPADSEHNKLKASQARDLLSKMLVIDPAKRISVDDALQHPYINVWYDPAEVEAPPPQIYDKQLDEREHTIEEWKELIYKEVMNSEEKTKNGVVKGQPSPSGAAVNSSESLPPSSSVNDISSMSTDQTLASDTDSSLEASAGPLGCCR
UniProt Q16539, whole entry: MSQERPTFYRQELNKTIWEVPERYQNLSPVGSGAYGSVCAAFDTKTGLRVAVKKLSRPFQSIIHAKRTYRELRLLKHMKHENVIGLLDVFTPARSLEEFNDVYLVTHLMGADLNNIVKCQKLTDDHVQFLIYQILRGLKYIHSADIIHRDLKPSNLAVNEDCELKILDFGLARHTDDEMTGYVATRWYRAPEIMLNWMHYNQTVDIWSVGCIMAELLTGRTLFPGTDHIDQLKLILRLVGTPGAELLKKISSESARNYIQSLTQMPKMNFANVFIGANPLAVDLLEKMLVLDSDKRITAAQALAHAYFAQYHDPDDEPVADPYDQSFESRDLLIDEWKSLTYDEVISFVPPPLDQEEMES
UniProt P45983: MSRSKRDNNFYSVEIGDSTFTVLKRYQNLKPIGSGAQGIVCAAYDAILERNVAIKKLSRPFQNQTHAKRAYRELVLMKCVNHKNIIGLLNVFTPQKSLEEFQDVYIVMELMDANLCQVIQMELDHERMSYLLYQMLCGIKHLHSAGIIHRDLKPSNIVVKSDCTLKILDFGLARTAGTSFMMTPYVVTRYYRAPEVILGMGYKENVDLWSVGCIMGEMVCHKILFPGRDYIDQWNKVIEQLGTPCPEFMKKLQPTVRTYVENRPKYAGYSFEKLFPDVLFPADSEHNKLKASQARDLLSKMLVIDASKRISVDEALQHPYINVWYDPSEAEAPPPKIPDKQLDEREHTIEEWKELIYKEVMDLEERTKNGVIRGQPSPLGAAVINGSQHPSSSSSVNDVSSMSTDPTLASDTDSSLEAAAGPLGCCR

Experiments:
Assay type in all cases: biochemical
JNK3 = target: T1, JNK3 (Homo sapiens, UniProt P53779); experiment: HotSpot Kinase Assay (Reaction Biology Corp.), anti-JNK3 activity
T1 construct: purchased Reaction Biology Corp
Description: (§1) The anti-JNK3 activity of compounds prepared as in the previous examples was evaluated using a Reaction Biology Corp. HotSpot Kinase Assay. Base reaction buffer was 20 mM HEPES (4-(2-hydroxyethyl)-1-piperazineethanesulfonic acid) at pH 7.5 with 10 mM MgCl2, 1 mM EGTA (ethylene glycol-bis(β-aminoethyl ether)-N,N,N′,N′-tetracetic acid), 0.02% Brij™ 35, 0.02 mg/mL BSA (bovine serum albumin), 0.1 mM Na3VO4, 2 mM DTT (dithiothreitol), and 1% DMSO. Required cofactors were added individually to each kinase reaction.
(§2) Activity against related enzymes JNK1 and P38a was further assessed using the same assay.

p38a = target: T2, p38a (Homo sapiens, UniProt Q16539); experiment: HotSpot Kinase Assay, P38a
T2 construct: purchased Reaction Biology Corp
Description: as §1, §2

JNK1 = target: T3, JNK1 (Homo sapiens, UniProt P45983); experiment: HotSpot Kinase Assay, JNK1
T3 construct: purchased Reaction Biology Corp
Description: as §1, §2

Compound	IC50 (JNK3)	IC50 (p38a)	IC50 (JNK1)
CNC(=O)c1cc(-n2ncc3cc(Oc4ccccc4Cl)ccc32)cs1 [Compound 8, 4-(5-(2-chlorophenoxy)-1H-indazol-1-yl)-N-methylthiophene-2-carboxamide]	< 200 nM	200 to 1000 nM	> 1000 nM
Cc1nc2c(cnn2-c2csc(C(=O)NC3COC3)c2)cc1Nc1c(F)cccc1Cl [Compound 101, 4-(5-((2-chloro-6-fluorophenyl)amino)-6-methyl-1H-pyrazolo[3,4-b]pyridin-1-yl)-N-(oxetan-3-yl)thiophene-2-carboxamide]	< 200 nM	200 to 1000 nM	200 to 1000 nM
